Laboratory results published in patent publication US10040783B2 (Emory University, priority 2011, dated 2018).
“Also recorded” adds a separate entry of the source.

Test system: mice after pilocarpine-induced status epilepticus
Conditions: mouse, in vivo

## COc1cc(/C=C/C(=O)NCCn2c(C(F)(F)F)cc3ccccc32)cc(OC)c1OC [1h, N-(2-(2-(trifluoromethyl)-1H-indol-1-yl)ethyl)-3-(3,4,5-trimethoxyphenyl)acrylamide]
  Effect on status epilepticus-induced weight loss: reduced; also recorded: partially prevented
  Weight gain from day 1 to day 4 compared to vehicle: gained weight; also recorded: gained more weight
